Target: EloBC complex (EloB-flag tag and EloC-His8 tag, co-expressed in E. coli) (UniProt Q15370)

**Q.** “9 types of inBC2-SOCS2s excluding inBC2-SOCS2153-198-9” was tested. Which fold improvement of binding ability against inBC2-SOCS2153-198 did it give?
**A.** 4 fold
